# Biological target: Kappa-type opioid receptor (Cavia porcellus, UniProt P41144)
# Amino acid sequences for entries named in this document (tags omitted). A change or cut given only in a name is not applied to a line headed by its entry.
# UniProt P41144: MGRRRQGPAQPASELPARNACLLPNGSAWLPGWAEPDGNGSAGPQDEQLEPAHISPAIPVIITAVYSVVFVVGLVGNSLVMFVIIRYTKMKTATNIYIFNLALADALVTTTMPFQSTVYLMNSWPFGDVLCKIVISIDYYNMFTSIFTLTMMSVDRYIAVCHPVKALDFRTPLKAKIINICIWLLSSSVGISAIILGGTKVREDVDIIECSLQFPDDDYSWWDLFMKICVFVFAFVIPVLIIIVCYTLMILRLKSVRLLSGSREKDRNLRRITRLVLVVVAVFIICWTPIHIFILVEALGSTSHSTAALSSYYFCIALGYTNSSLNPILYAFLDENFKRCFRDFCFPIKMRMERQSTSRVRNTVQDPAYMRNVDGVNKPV
structure (smiles),measurement,value
CN(C(=O)Cc1ccccc1)[C@H]1CC[C@@]2(CCCO2)C[C@@H]1N1CCCC1,pEC50,5.84

# — ChEMBL document CHEMBL5126672, “Discovery of κ Opioid Receptor (KOR)-Selective d-Tetrapeptides with Improved In Vivo Antinociceptive Effect after Peripheral Administration” (ACS Med Chem Lett, 2022)
